The record followed here is ChEMBL document CHEMBL1123905.

Chains of the proteins cited; added tags and fusions are not shown.
UniProt P47747, whole entry, looked up: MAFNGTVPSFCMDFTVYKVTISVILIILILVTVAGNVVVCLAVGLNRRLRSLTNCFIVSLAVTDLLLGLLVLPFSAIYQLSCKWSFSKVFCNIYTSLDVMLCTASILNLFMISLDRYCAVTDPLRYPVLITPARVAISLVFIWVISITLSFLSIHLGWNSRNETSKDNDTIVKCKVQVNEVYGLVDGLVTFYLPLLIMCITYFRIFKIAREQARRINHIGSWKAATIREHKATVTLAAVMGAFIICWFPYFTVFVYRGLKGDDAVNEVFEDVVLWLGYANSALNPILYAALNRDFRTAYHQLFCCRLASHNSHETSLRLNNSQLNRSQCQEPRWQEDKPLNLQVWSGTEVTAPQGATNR

The assay deals with Histamine H2 receptor (Cavia porcellus) (UniProt P47747). Nature of the assay: Antagonism of histamine stimulated rate of beating of guinea pig right atrium mediated by Histamine H2 receptor. It counts as functional, tissue-based. As to conditions: Cardiac atrium.

SMILES strings stand for the structures.

Compound `CCOP(=O)(O)/N=C(\NC)NCCSCc1[nH]cnc1C` registered a -Log KB of 4.48.
